Key:
[1] = target: αvβ3 integrin (human (endogenous in WM266)) (UniProt P06756)
[2] = target: αvβ3 integrin (human (endogenous in WM266)) (UniProt P06756); remark: listed apart in the source
[3] = target: αvβ3 integrin (human (endogenous in WM266)) (UniProt P06756); remark: listed apart in the source
[4] = target: αvβ3 integrin (human (endogenous in WM266)) (UniProt P06756); remark: listed apart in the source

The chains behind the UniProt entries cited, without tags or fusion partners. Residues count along the entry.
UniProt P06756, 31-1048, chain 1 of 2: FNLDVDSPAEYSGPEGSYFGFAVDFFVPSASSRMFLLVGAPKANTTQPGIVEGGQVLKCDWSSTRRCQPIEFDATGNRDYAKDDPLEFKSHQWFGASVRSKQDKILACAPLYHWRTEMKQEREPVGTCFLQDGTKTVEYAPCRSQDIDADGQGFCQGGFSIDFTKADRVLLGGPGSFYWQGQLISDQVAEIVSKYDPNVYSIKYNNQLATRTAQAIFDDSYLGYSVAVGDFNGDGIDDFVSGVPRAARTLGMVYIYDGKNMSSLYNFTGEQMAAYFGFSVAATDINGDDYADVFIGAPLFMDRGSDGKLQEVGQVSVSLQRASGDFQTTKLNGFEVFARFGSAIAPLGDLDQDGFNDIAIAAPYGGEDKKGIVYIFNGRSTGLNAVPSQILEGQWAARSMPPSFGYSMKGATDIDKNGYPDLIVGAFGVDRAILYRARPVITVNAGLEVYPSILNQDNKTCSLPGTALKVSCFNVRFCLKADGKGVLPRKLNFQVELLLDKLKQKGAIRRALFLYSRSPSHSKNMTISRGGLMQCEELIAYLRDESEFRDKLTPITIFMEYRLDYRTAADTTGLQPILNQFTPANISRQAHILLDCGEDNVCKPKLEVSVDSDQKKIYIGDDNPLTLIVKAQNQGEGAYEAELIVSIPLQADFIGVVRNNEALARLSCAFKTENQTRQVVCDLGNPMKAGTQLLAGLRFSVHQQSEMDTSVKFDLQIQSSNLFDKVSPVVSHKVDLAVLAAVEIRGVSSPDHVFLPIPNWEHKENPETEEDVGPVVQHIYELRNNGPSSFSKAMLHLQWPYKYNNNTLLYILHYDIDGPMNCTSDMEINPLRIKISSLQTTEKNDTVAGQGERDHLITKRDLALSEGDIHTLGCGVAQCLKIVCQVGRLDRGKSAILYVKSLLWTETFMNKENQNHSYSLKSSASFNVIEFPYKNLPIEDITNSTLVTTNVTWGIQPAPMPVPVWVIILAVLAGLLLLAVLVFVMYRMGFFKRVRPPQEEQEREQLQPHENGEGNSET

Substance	detachment of adherent WM266 cells from vitronectin-coated plates (αvβ3 with vitronectin), peptide 50 µM, 2 h [1] [%]	percentage of peptide internalised into WM266 cells, flow cytometry with dithionite quenching, peptide 10 µM, 30 min [2] [%]	decrease of adhesion of WM266 cells to fibronectin-coated plates (αvβ3 with fibronectin), peptide 50 µM, crystal violet [3] [%]	decrease of adhesion of WM266 cells to vitronectin-coated plates (αvβ3 with vitronectin), peptide 50 µM, crystal violet [3] [%]	IC50 of inhibition of adhesion of WM266 cells to fibronectin-coated plates (αvβ3 with fibronectin) [4] [µM]	IC50 of inhibition of adhesion of WM266 cells to vitronectin-coated plates (αvβ3 with vitronectin) [4] [µM]
Cilengitide (peptide)	60	–	–	–	–	–
NBD-labeled RGDechi-hCit (peptide)	–	90	–	–	–	–
RGDechi-hCit (peptide)	50	–	40	70	53	25.5

From article PMC4172472
